Patent publication US10501412B2, “Conjugates of cell binding molecules with cytotoxic agents” (HANGZHOU DAC BIOTECH CO., LTD., priority 2012, dated 2019)
Read-outs that look alike come from different tables or passages of the source.

Test system: KPL-4 (breast cancer cell line)
Experiment: In vitro cytotoxicity (clonogenic assay) on KPL-4
Type: cell-based

Trastuzumab-TZ03 conjugate
IC50 (in the absence of unconjugated Trastuzumab (as restated in the specificity window), read-out: IC50, antiproliferative effect): 90 pM
IC50 (in the absence of unconjugated Trastuzumab, DAR 3.5˜4.0, read-out: IC50, antiproliferative effect): 90 pM
